System: cultured SF cells
Assay: effect of TG-2 inhibitors on cultured scleral fibroblast growth (XCELLigence)
Assay type: cell-based
Settings: treated SF cells
Method: To test the effect of TG-2 inhibitors on cultured scleral fibroblast growth, cultured SF cells at passage 4 were treated with TG-2 inhibitors at baseline, 0.1, 1, 10 and 100 μM for 5 days. The SF cell growth was monitored by XCELLigence cell impedance.

Substance: TAMRA-DON [R002]
- cell morphology: No change

Source: patent US20140050779A1, “[…]-2 INHIBITORS AND USES THEREOF” (SINGAPORE HEALTH SERVICES PTE. LTD., priority 2011, published 2014)
